Test results: patent US20240165145A1, “COMPOSITIONS AND METHODS FOR TREATING CANCER AND BIOMARKERS TO DETECT CANCER STEM CELL REPROGRAMMING AND PROGRESSION” (The Regents of the University of California, priority 2016, published 2024)

Protein sequences, listed by entry. Tags and fused reporters are not part of them. Lines headed by an entry give the natural chain unless they say otherwise; changes in a name come on top.
UniProt O60674: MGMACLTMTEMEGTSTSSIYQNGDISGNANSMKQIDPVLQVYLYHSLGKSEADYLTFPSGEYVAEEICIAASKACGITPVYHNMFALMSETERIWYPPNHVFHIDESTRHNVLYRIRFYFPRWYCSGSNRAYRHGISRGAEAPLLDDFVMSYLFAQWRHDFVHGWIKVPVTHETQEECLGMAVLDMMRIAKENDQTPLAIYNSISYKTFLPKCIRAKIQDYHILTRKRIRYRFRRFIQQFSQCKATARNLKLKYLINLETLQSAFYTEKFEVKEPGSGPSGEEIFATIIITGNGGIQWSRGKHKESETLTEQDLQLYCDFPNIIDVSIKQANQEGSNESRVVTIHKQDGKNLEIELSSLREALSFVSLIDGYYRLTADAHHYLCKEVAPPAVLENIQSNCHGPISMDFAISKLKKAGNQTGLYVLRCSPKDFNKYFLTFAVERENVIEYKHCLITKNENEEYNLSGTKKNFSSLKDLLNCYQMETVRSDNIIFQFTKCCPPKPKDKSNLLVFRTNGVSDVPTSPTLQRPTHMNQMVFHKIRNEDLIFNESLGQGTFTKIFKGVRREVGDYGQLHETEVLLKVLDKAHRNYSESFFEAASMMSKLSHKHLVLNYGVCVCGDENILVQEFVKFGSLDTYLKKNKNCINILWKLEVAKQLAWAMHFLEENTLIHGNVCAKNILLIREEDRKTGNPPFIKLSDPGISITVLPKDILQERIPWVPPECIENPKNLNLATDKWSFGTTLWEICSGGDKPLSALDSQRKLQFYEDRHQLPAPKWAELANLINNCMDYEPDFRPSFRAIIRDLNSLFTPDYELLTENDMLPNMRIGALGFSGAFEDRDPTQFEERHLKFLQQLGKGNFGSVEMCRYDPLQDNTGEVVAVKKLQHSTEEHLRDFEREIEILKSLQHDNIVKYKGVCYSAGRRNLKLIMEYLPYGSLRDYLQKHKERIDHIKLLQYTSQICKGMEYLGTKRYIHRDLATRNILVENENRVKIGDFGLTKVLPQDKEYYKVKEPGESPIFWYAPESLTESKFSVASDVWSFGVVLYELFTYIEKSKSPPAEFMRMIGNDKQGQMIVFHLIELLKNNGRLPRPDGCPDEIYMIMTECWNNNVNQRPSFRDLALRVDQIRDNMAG

Biological target: JAK2 (Homo sapiens, UniProt O60674)
Test: Nanoproteomic analysis of p-JAK2, p-CRKL and p-STAT5a in BC progenitors isolated from treated mice
Conditions: splenic and bone marrow niches of treated mice; 2-day treatment

## Cc1cnc(Nc2ccc(OCCN3CCCC3)cc2)nc1Nc1cccc(S(=O)(=O)NC(C)(C)C)c1 [SAR302503, N-tert-Butyl-3-{5-methyl-2-[4-(2-pyrrolidin-1-yl-ethoxy)-phenylamino]-pyrimidin-4-ylamino}-benzenesulfonamide]
  JAK2 inhibition by p-JAK2, p-CRKL and p-STAT5a levels in BC progenitors: Selective JAK2 inhibition
